US5089479A, “Adhesion of Mycoplasma pneumoniae and Mycoplasma hominus to sulfatide” (priority 1988, dated 1992)

Tested on: M. pneumoniae
Assay: M. pneumoniae adhesion to immobilized glycoproteins adsorbed on plastic
Type: binding, Mycoplasma pneumoniae strain M129
Details: for amount of glycoprotein coated that promotes adhesion: coated wells
Protocol: Glycoproteins dissolved in 0.01 M sodium phosphate buffer, pH 7.4, containing 150 mM NaCl, 1 mM CaCl2, and 0.01% NaN3 were adsorbed onto plastic polyvinylchloride […] microtiter plates by incubation for 16 hours at 4° C. The unbound proteins were removed, and the wells were filled with tris-BSA and incubated for 30 minutes at room temperature. The wells were rinsed with RPMI1640 containing 25 mM HEPES, pH 7.3, and 1% bovine serum albumin. M. pneumoniae strain M129 labelled with [^3 H]-palmitate were dispersed in RPMI-BSA by passing four times through a 26 gauge needle, and 50 μl of the suspension was applied to the wells. After incubation for 60 minutes at 37° C., the wells were washed five times with saline and the labelled M. pneumoniae bound to the proteins were quantified by scintillation counting in Aquasol. […]
Adhesion of labelled M. pneumoniae to WiDr cells on glass cover slips was determined as described previously. For inhibition studies, dextran sulfate and 3'-sialyllactose were dissolved in RPMI-BSA and the pH was adjusted to 7.4 with NaOH. The inhibitors were added to wells containing washed cover slips with attached WiDr cells or blank cover slips preincubated in medium or tris-BSA. Labelled M. pneumoniae were added immediately and incubated with slow rocking for sixty minutes at 37° C. After the coverslips were washed by dipping six times in saline, bound M. pneumoniae were determined by scintillation counting in Aquasol. […] After washing to remove the unbound organisms, the bound mycoplasma were determined by scintillation counting. Binding to uncoated wells was 3% of the applied radioactivity.
FIG. 7 illustrates the effect of neuraminidase treatment on M. pneumoniae binding to immobilized glycoproteins. […] [^3 H]-labelled M. pneumoniae binding was determined as described above.
^1 Binding of [^3 H]-M. pneumoniae was determined to polyvinyl […]
proteins. Relative binding activities of the proteins were determined by […]

| Substance | amount of glycoprotein coated that promotes adhesion | Relative binding activity (relative to fetuin = 1.0, from amount for half maximal binding, mean of 2 or 3 experiments) |
| --- | --- | --- |
| hCG α-subunit: α-subunit of human chorionic gonadotropin | less than 10 ng | 0.8 |
| hCG: human chorionic gonadotropin | less than 10 ng | – |
